Here are results for 43 compounds from US6846802B2, “Macrocyclic NS3-serine protease inhibitors of hepatitis C virus comprising N-cyclic P2 moieties” (priority 2000, dated 2005).

Amino acid sequences for entries named in this document (tags omitted). Residues count along the entry.
UniProt P27958, 1027-1657: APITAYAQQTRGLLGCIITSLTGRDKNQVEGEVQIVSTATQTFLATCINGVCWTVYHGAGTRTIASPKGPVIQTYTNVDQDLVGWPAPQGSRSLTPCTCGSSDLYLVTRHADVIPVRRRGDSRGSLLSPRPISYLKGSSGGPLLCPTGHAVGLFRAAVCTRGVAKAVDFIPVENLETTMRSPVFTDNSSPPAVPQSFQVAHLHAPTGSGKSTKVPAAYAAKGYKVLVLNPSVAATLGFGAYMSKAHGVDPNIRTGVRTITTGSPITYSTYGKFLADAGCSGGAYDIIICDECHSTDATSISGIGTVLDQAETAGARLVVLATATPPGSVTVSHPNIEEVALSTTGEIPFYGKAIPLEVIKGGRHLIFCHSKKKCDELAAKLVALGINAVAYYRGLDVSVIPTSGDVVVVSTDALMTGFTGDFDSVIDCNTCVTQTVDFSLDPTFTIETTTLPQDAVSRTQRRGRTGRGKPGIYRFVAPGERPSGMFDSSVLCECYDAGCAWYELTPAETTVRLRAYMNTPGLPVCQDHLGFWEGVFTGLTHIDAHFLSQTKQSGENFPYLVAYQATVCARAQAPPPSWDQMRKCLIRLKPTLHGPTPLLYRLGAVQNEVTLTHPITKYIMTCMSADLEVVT
UniProt P27958, 1658-1711: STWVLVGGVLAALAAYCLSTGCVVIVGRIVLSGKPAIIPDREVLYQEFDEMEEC

The term pKi denotes −log10 of the Ki, conventionally taken in molar units.

pKi: −log10 of the molar value. Starred links: 1 amine or outer side, 2 acyl side, 3 side chain; linkers in the order of their positions; H or OH if unused. Positions of bridges follow the written chain, without caps; N, C: chain ends. Non-standard residues stand in square brackets, D forms with d. Residues, ends and D or L forms follow the SMILES beside them. Tic(7-O(CH2)6CO) = O=C([C@@H]1Cc2ccc(OCCCCCCC(=O)[*:3])cc2CN1[*:1])[*:2]; X1 = CCC[C@H](N[*:1])C(=O)C(=O)[*:2]; Chg = N[C@H](C(=O)O)C1CCCCC1; Phg = N[C@H](C(=O)O)c1ccccc1

The test addresses Recombinant heterodimeric HCV NS3/NS4A protease (strain 1a) (Hepatitis C virus genotype 1a, UniProt P27958). Kind of test: biochemical.
As to `CCCC(NC(=O)[C@@H]1Cc2ccc3cc2CN1C(=O)[C@H](C1CCCCC1)NC(=O)CCCCc1ccc(cc1)O3)C(=O)C(=O)NCC(=O)N[C@H](C(=O)N(C)C)c1ccccc1` (stereo partly shown) [Compound 63], the pKi is 4.00 to 7.00.

`CCC[C@@H](NC(=O)[C@@H]1C[C@@H]2CN1C(=O)[C@H](C1CCCCC1)NC(=O)N(C)Cc1cccc(c1)OCCCO2)C(=O)C(=O)NCC(=O)N[C@H](C(=O)N(C)C)c1ccccc1` [Compound 66A]: the pKi is 4.00 to 7.00.

On to `CCCC(NC(=O)[C@@H]1C[C@@H]2CN1C(=O)[C@H](C1CCCC(C(=O)O)C1)NC(=O)Cc1cccc(c1)OCCCO2)C(=O)C(=O)NCC(=O)N[C@H](C(=O)N(C)C)c1ccccc1` (stereo partly shown) [Compound 65], for which the pKi was 7.00 to 9.00.

Take `CCCC(NC(=O)[C@@H]1C[C@@H]2CN1C(=O)[C@H](C1CCCCC1)NC(=O)Cc1cccc(c1)OCCCO2)C(=O)C(=O)NCC(=O)N[C@H](C(=O)OC(C)(C)C)c1ccccc1` (stereo partly shown) [Compound 2]: the pKi was 7.00 to 9.00.

Turning to `CCCC(NC(=O)[C@@H]1C[C@@H]2CN1C(=O)[C@H](C1CCCCC1)NC(=O)Cc1cccc(c1)OCCCO2)C(=O)C(=O)NCC(=O)NCc1ccccc1` (stereo partly shown) [Compound 25], the pKi was 4.00 to 7.00.

Turning to `CCC[C@H](NC(=O)[C@@H]1C[C@@H]2CN1C(=O)[C@H](C1CCCCC1)NC(=O)Cc1cccc(c1)OCCCS2)C(=O)C(=O)NCC(=O)N[C@H](C(=O)N(C)C)c1ccccc1` [Compound 10B], the pKi was 7.00 to 9.00.

As to `CCC[C@H](NC(=O)[C@@H]1C[C@@H]2CN1C(=O)[C@H](C1CCCCC1)NC(=O)CCc1cccc(c1)OCCO2)C(=O)C(=O)NCC(=O)N[C@H](C(=O)N(C)C)c1ccccc1` [Compound 20B], the pKi is 7.00 to 9.00.

For `CCCC(NC(=O)[C@@H]1C[C@@H]2CN1C(=O)[C@H](C1CCCC1)NC(=O)Cc1cccc(c1)OCCC(C)(C)O2)C(=O)C(N)=O` (stereo partly shown) [Compound 105], the pKi was 4.00 to 7.00.

Take `CCCC(NC(=O)[C@@H]1C[C@@H]2CN1C(=O)[C@H](C1CCC(C(=O)O)CC1)NC(=O)Cc1cccc(c1)OCCCO2)C(=O)C(=O)NCC(=O)N[C@H](C(=O)N(C)C)c1ccccc1` (stereo partly shown) [Compound 17]: the pKi is 7.00 to 9.00.

As to `CCC[C@@H](NC(=O)[C@@H]1C[C@@H]2CN1C(=O)[C@H](C1CCCCC1)NC(=O)Cc1cccc(c1)OCCO2)C(=O)C(=O)NCC(=O)N[C@H](C(=O)N(C)C)c1ccccc1` [Compound 7A], the pKi was 4.00 to 7.00.

Consider `C=CCNC(=O)C(=O)C(CCC)NC(=O)[C@@H]1C[C@@H]2CN1C(=O)[C@H](C(C)(C)C)NC(=O)Cc1cccc(c1)OCCC(C)(C)O2` (stereo partly shown) [Compound 93], for which the pKi was 4.00 to 7.00.

For `CCCC(NC(=O)[C@@H]1C[C@@H]2CN1C(=O)[C@H](C(C)(C)C)NC(=O)Cc1cccc(c1)OCCC(C)(C)O2)C(=O)C(=O)NCC(=O)N[C@H](C(=O)N(C)C)c1ccccc1` (stereo partly shown) [Compound 92], the pKi is 7.00 to 9.00.

Turning to `CCCC(NC(=O)C1C[C@@H]2CN1C(=O)C(C1CCCCC1)NC(=O)CCCCc1ccc(cc1)S(=O)(=O)N2)C(=O)C(=O)NCC(=O)N[C@H](C(=O)O)c1ccccc1` (stereo partly shown) [Compound 40], the pKi was 4.00 to 7.00.

Consider `CCCC(NC(=O)[C@@H]1C[C@@H]2CN1C(=O)[C@H](C(C)(C)C)NC(=O)Cc1cccc(c1)OCCCO2)C(=O)C(=O)NCC(=O)N[C@H](C(=O)O)c1ccc(NS(N)(=O)=O)cc1` (stereo partly shown) [Compound 19], for which the pKi is 7.00 to 9.00.

Take `CC1(C)CCOc2cccc(c2)CC(=O)N[C@@H](C2Cc3ccccc3C2)C(=O)N2C[C@@H](C[C@H]2C(=O)NC(CC2CCC2)C(=O)C(N)=O)O1` (stereo partly shown) [Compound 73]: the pKi was 4.00 to 7.00.

On to `CCC[C@H](NC(=O)[C@@H]1[C@H]2OC3CCCOc4cccc(c4)CC(=O)N[C@@H](C4CCCCC4)C(=O)N1C[C@@H]2O3)C(=O)C(=O)NCC(=O)N[C@H](C(=O)O)c1ccccc1` [Compound 29B], for which the pKi was 7.00 to 9.00.

On to `CCC[C@H](NC(=O)[C@@H]1C[C@@H]2CN1C(=O)[C@H](C1CCCCC1)NC(=O)Cc1ccc(C)c(c1)OCCCO2)C(=O)C(=O)NCC(=O)N[C@H](C(=O)N(C)C)c1ccccc1` [Compound 75B], for which the pKi is 7.00 to 9.00.

Consider `C=CCCC(NC(=O)[C@@H]1C[C@@H]2CN1C(=O)[C@H](C1CCCCC1)NC(=O)Cc1cccc(c1)OCCCC(C)(C)O2)C(=O)C(=O)NCC=C` (stereo partly shown) [Compound 108], for which the negative logarithm of the Ki (pKi) was 4.00 to 7.00.

With `C=CCCC(NC(=O)[C@@H]1C[C@@H]2CN1C(=O)[C@H](C1CCCCC1)NC(=O)Cc1cccc(c1)OCCC(C)(C)O2)C(=O)C(N)=O` (stereo partly shown) [Compound 87], the pKi was 4.00 to 7.00.

Turning to `CCCC(NC(=O)[C@@H]1C[C@@H]2CN1C(=O)[C@H](C1CCCCC1)NC(=O)CCc1cccc(c1)OCCO2)C(=O)C(=O)NCC(=O)N[C@H](C(=O)OC(C)(C)C)c1ccccc1` (stereo partly shown) [Compound 21], the pKi is 4.00 to 7.00.

For the compound `CCCC(NC(=O)[C@@H]1C[C@@H]2CN1C(=O)[C@H](C(C)C)NC(=O)Cc1cccc(c1)OCCC(C)(C)O2)C(=O)C(=O)NCC(=O)N[C@H](C(=O)N(C)C)c1ccccc1` (stereo partly shown) [Compound 95], the pKi was 7.00 to 9.00.

Take `CCCC(NC(=O)C1C[C@@H]2CN1C(=O)C(C1CCCCC1)NC(=O)CCCCc1cccc(c1)S(=O)(=O)N2)C(=O)C(=O)NCC(=O)N[C@H](C(=O)O)c1ccccc1` (stereo partly shown) [Compound 38A]: the pKi is 4.00 to 7.00.

`CCCC[C@@H](NC(=O)[C@@H]1C[C@@H]2CN1C(=O)[C@H](C(C)(C)C)NC(=O)Cc1ccccc1OCCCCO2)C(=O)C(=O)NCC(=O)N[C@H](C(=O)N(C)C)c1ccccc1` [Compound 53A]: the pKi is 4.00 to 7.00.

Take `CCC[C@H](NC(=O)[C@@H]1Cc2ccc3cc2CN1C(=O)[C@H](C1CCCCC1)NC(=O)CCCCCCO3)C(=O)C(=O)NCC(=O)N[C@H](C(=O)O)c1ccccc1` [Compound 59B] ([Chg][Tic(7-O(CH2)6CO)][X1]G[Phg]-OH; lactam N-2): the pKi is 7.00 to 9.00.

On to `CCCC(NC(=O)[C@@H]1C[C@@H]2CN1C(=O)[C@H](C1CCCCC1)NC(=O)CCc1cccc(c1)OCCO2)C(=O)C(=O)NCC(=O)N[C@H](C(=O)O)c1ccccc1` (stereo partly shown) [Compound 22], for which the pKi was 7.00 to 9.00.

In the case of `CCC[C@@H](NC(=O)[C@@H]1C[C@@H]2CN1C(=O)[C@H](C1CCCCC1)NC(=O)Cc1cccc(c1)OCCCCO2)C(=O)C(=O)NCC(=O)N[C@H](C(=O)N(C)C)C1Cc2ccccc2C1` [Compound 70A], the pKi was 4.00 to 7.00.

Turning to `CCC[C@H](NC(=O)[C@@H]1C[C@@H]2CN1C(=O)[C@H](C1CCCCC1)NC(=O)Cc1cccc(c1)OCCCCO2)C(=O)C(=O)NCC(=O)N[C@H](C(=O)N(C)C)c1ccccc1` [Compound 4B], the pKi was 7.00 to 9.00.

Consider `CCCC(NC(=O)C1C[C@@H]2CN1C(=O)C(C1CCCCC1)NC(=O)CCCCc1cccc(c1)S(=O)(=O)N2)C(=O)C(=O)NCC(=O)N[C@H](C(=O)OC(C)(C)C)c1ccccc1` (single isomer, unassigned) [Compound 37B], for which the pKi was 4.00 to 7.00.

For `CCC[C@@H](NC(=O)[C@@H]1[C@H]2OC3CCCOc4cccc(c4)CC(=O)N[C@@H](C4CCCCC4)C(=O)N1C[C@@H]2O3)C(=O)C(=O)NCC(=O)N[C@H](C(=O)N(C)C)c1ccccc1` [Compound 27A], the pKi is 4.00 to 7.00.

Turning to `CCCC(NC(=O)[C@@H]1C[C@@H]2CN1C(=O)[C@H](C(C)C)NC(=O)Cc1cccc(c1)OCCC(C)(C)O2)C(=O)C(N)=O` (stereo partly shown) [Compound 97], the pKi was 4.00 to 7.00.

Take `CCCC(NC(=O)[C@@H]1Cc2ccc3cc2CN1C(=O)[C@H](C1CCCCC1)NC(=O)CCCCCCO3)C(=O)C(=O)NCC(=O)N[C@H](C(=O)OC(C)(C)C)c1ccccc1` (mixture of isomers) [Compound 58]: the pKi was 4.00 to 7.00.

With `CCC[C@@H](NC(=O)[C@@H]1C[C@@H]2CN1C(=O)[C@H](C1CCCCC1)NC(=O)CCc1cccc(c1)OCCO2)C(=O)C(=O)NCC(=O)N[C@H](C(=O)N(C)C)c1ccccc1` [Compound 20A], the pKi was 4.00 to 7.00.

On to `CCCC(NC(=O)[C@@H]1C[C@@H]2CN1C(=O)[C@H](C1CCCCC1)NC(=O)Cc1cccc(c1)OCCC(C)(C)O2)C(=O)C(=O)NCC(=O)N[C@H](C(=O)OC(C)(C)C)c1ccccc1` (stereo partly shown) [Compound 31], for which the pKi was 7.00 to 9.00.

On to `CCCC(NC(=O)[C@@H]1C[C@@H]2CN1C(=O)[C@H](c1ccccc1)NC(=O)Cc1cccc(c1)OCCC(C)(C)O2)C(=O)C(=O)NCC(=O)N[C@H](C(=O)N(C)C)c1ccccc1` (stereo partly shown) [Compound 98], for which the pKi is 7.00 to 9.00.

On to `CCCC(NC(=O)[C@@H]1Cc2ccc3cc2CN1C(=O)[C@H](C1CCCCC1)NC(=O)CCc1ccc(cc1)O3)C(=O)C(=O)NCC(=O)N[C@H](C(=O)OC(C)(C)C)c1ccccc1` (stereo partly shown) [Compound 60], for which the pKi was 4.00 to 7.00.

Turning to `CCCC(NC(=O)[C@@H]1[C@@H]2CCN1C(=O)[C@H](C(C)(C)C)NC(=O)Cc1cccc(c1)OCCCCO2)C(=O)C(=O)NCC(=O)N[C@H](C(=O)N(C)C)c1ccccc1` (stereo partly shown) [Compound 111], the pKi is 7.00 to 9.00.

Consider `CCCC(NC(=O)[C@@H]1C[C@@H]2CN1C(=O)[C@H](C1CCCCC1)NC(=O)Cc1cccc(c1)OCCCCO2)C(=O)C(=O)NCC(=O)N[C@H](CO)c1ccccc1` (stereo partly shown) [Compound 72], for which the pKi was 7.00 to 9.00.

On to `C=CCNC(=O)C(=O)C(CCC)NC(=O)[C@@H]1C[C@@H]2CN1C(=O)[C@H](C(C)CC)NC(=O)Cc1cccc(c1)OCCC(C)(C)O2` (stereo partly shown) [Compound 102], for which the pKi was 4.00 to 7.00.

For `CCC[C@H](NC(=O)[C@@H]1C[C@@H]2CN1C(=O)[C@H](C1CCCCC1)NC(=O)N(C)Cc1cccc(c1)OCCCO2)C(=O)C(=O)NCC(=O)N[C@H](C(=O)N(C)C)c1ccccc1` [Compound 66B], the negative logarithm of the Ki (pKi) was 7.00 to 9.00.

Consider `CCCCC(NC(=O)[C@@H]1C[C@@H]2CN1C(=O)[C@H](C1CCCCC1)NC(=O)Cc1cccc(c1)OCCC(C)(C)O2)C(=O)C(=O)NCC(=O)N[C@H](C(=O)N(C)C)c1ccccc1` (stereo partly shown) [Compound 83], for which the pKi is 7.00 to 9.00.

For the compound `CCC[C@H](NC(=O)[C@@H]1C[C@@H]2CN1C(=O)[C@H](C1CCCCC1)NC(=O)Cc1cccc(c1)OCCCO2)C(=O)C(=O)NCC(=O)N[C@H](C(=O)N(C)C)C1Cc2ccccc2C1` [Compound 69B], the pKi is 7.00 to 9.00.

Consider `CCCC(NC(=O)[C@@H]1C[C@@H]2CN1C(=O)[C@H](C1CCCCC1)NC(=O)Cc1cccc(c1)OCCCS2(=O)=O)C(=O)C(=O)NCC(=O)N[C@H](C(=O)N(C)C)c1ccccc1` (stereo partly shown) [Compound 11], for which the pKi is 4.00 to 7.00.

Turning to `CCCC(NC(=O)[C@@H]1C[C@@H]2CN1C(=O)C(C1CCC(C(=O)OC(C)(C)C)CC1)NC(=O)Cc1cccc(c1)OCCCO2)C(=O)C(=O)NCC(=O)N[C@H](C(=O)N(C)C)c1ccccc1` (stereo partly shown) [Compound 16], the pKi was 7.00 to 9.00.
